scFv variants of Ab-14 (heavy chain) against a SARS-CoV-2 spike peptide

Reference: Engelhart et al. 2022, doi:10.1038/s41597-022-01779-4. File: FLAb, binding data.

Binding partner: SARS-CoV-2 spike HR2 peptide, sequence PDVDLGDISGINAS.

Parent scFv Ab-14: VH joined to VL by the linker GGGGSGGGGSGGGGS. Changes lie in the heavy chain CDRs alone.
VH: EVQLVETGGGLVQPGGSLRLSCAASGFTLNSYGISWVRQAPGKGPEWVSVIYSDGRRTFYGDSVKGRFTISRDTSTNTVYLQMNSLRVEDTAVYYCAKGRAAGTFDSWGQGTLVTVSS
VL: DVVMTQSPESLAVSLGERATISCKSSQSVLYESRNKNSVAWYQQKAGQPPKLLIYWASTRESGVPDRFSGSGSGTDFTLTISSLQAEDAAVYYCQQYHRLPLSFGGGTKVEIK

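AAYL49 was designed without a model: most single CDR substitutions and a random sample of double and triple ones. AlphaSeq pools MATa yeast showing the antibodies with MATalpha yeast showing the peptide. Binding brings cells together so that they mate, and sequencing counts the barcode pairs among the diploids. Scores were corrected for input abundance and mapped to Kd with protein pairs of known affinity run in the same pool. Each pool was mated in three replicate cultures.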

Positions count from residue 1 of the parent VH; R100Y puts Y in place of R. Numbers give log10(Kd / nM), so 0 is 1 nM and 3 is 1 µM. Smaller is tighter. Averages over replicates are reported, and they cover detected replicates only. "no signal" means that the variant was in the library but no mating with the target was seen in any replicate; the authors take this as a sign of poor binding, and no number exists. As a blank, each scFv also met three strains without target: over library AAYL49, 15% of these pairings were detected, typically at 4.06 and seldom below 2.83. The control count says in how many pairings with the empty strains this scFv gave a signal. In this assay the parent's reference entry averaged 0.65; its copy inside this library read 4.11 (one replicate of three).

changes	mean, log10 nM	replicates with signal	empty controls
R100Y T104G	4.16	1 of 3	1 of 9
I51K R56E	no signal	0 of 3	1 of 9
F27I V50P D54M	no signal	0 of 3	0 of 9
V64Y A102V T104D	2.66	1 of 3	1 of 9
L29D Y60T D62P	3.03	1 of 3	2 of 9
S53I D106V	no signal	0 of 3	1 of 9
G26T Y60V A101S	no signal	0 of 3	1 of 9
F59P S63C A101N	2.58	1 of 3	0 of 9
F27T L29H	no signal	0 of 3	0 of 9
N30Q T58D T104W	no signal	0 of 3	0 of 9
I34M Y52S	3.60	1 of 3	2 of 9
F27L S53D G103N	no signal	0 of 3	1 of 9
Y32F T104G F105M	no signal	0 of 3	0 of 9
S35D T58R Y60W	no signal	0 of 3	0 of 9
S35L D54I G103A	no signal	0 of 3	0 of 9
F27T R57P A102F	no signal	0 of 3	1 of 9
R56Q G61R S63R	2.90	3 of 3	0 of 9
Y32L D62P S107N	no signal	0 of 3	0 of 9
G26F S31R G103Y	no signal	0 of 3	0 of 9
I34E V50W D54C	4.10	1 of 3	2 of 9
G26A Y52A K65E	5.00	1 of 3	1 of 9
I34A R100I G103P	3.50	1 of 3	2 of 9
N30R Y60R G99E	no signal	0 of 3	1 of 9
G55T T58Y S63R	no signal	0 of 3	0 of 9
T28L L29T D106I	3.90	1 of 3	2 of 9
G55N S63V T104L	no signal	0 of 3	0 of 9

The remaining entries, values ahead:

mean, log10 nM	replicates with signal	empty controls	changes
no signal	0 of 3	2 of 9	F27A Y32D R100M
4.53	2 of 3	5 of 9	Y32T S35K V50S
4.54	2 of 3	4 of 9	S31T S53R S107M
2.52	1 of 3	0 of 9	G26E T58Y
no signal	0 of 3	1 of 9	V50P D54P V64E
no signal	0 of 3	0 of 9	G26C I51S D54G
3.98	1 of 3	3 of 9	L29F Y32F R57L
no signal	0 of 3	0 of 9	G33E D54V S63P
5.51	1 of 3	2 of 9	I34C G55N G103T
2.02	2 of 3	0 of 9	N30V A102L
no signal	0 of 3	0 of 9	D54I R57Y G103V
3.53	1 of 3	1 of 9	S53D R100N
4.17	3 of 3	2 of 9	G26S Y52E G55A
6.71	1 of 3	4 of 9	I34N I51E K65S
no signal	0 of 3	0 of 9	F27V R57G D62Q
no signal	0 of 3	0 of 9	G33A S53R A101C
3.32	1 of 3	1 of 9	N30I K65M G103C
4.21	2 of 3	3 of 9	G61T F105V D106C
2.73	1 of 3	0 of 9	V50N F59P S63N
no signal	0 of 3	2 of 9	D54F Y60N T104S
4.70	1 of 3	4 of 9	R57C G61C T104Y
4.05	2 of 3	3 of 9	T58I Y60I V64S
2.49	3 of 3	0 of 9	T28I S63L T104F
2.59	3 of 3	4 of 9	N30Y F59H R100S
no signal	0 of 3	0 of 9	Y32N D62F R100P
no signal	0 of 3	0 of 9	S31W A101K F105N

Extract of 5 entries:

| changes | mean, log10 nM | replicates with signal | empty controls |
|---|---|---|---|
| N30I K65M G103C | 3.32 | 1 of 3 | 1 of 9 |
| L29D Y60T D62P | 3.03 | 1 of 3 | 2 of 9 |
| S35D T58R Y60W | no signal | 0 of 3 | 0 of 9 |
| S53I D106V | no signal | 0 of 3 | 1 of 9 |
| V50P D54P V64E | no signal | 0 of 3 | 1 of 9 |